From patent publication US20020150912A1, “Reporter system for cell surface receptor-ligand binding” (priority 2000, published 2002)

Protein sequences, listed by entry. Tags and fused reporters are not part of them.
UniProt P15823, whole entry: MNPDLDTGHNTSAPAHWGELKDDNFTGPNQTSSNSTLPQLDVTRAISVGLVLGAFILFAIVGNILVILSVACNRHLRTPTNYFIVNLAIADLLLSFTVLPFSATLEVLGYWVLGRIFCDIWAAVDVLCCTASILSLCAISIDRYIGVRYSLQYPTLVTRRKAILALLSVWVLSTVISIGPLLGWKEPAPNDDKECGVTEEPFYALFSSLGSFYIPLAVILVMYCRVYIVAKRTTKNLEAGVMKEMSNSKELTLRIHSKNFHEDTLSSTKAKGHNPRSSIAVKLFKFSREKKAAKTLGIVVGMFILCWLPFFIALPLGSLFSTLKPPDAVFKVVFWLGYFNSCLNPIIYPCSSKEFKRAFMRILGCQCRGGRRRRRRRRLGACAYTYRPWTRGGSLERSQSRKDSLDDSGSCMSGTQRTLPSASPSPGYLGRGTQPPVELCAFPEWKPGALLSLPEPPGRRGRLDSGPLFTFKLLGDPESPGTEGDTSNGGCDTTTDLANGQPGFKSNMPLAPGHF

Target: alpha adrenoceptor, Rα1b (Rattus norvegicus, UniProt P15823)
Assay: cell-based

EC50: 117 nM
Structure (SMILES): CNC[C@H](O)c1ccc(O)c(O)c1 [epinephrine]
